Laboratory results from ChEMBL document CHEMBL1133478, “Discovery of potent cyclic pseudopeptide human tachykinin NK-2 receptor antagonists” (J Med Chem, 2000).

Tested on: Substance-K receptor (Oryctolagus cuniculus)
Test: In Vitro evaluation for the functional activity towards Tachykinin receptor 2

- pKb: 5.8
SMILES: O=C1CCC(=O)N[C@@H](Cc2c[nH]c3ccccc23)C(=O)N[C@@H](Cc2ccccc2)C(=O)NC(Cc2ccccc2)CN1 (stereo partly specified)
